Structures are written as SMILES.

Data on eight molecules can be found in patent publication US9320731B2, “7-azoniabicyclo[2.2.1]heptane derivatives, methods of production, and pharmaceutical uses thereof” (dated 2016).

The subject of assay [1] is methacholine-induced bronchoconstriction in rat. The experiment in a line: Rat bronchoprotection, MCh dose response after inhalation. The conditions noted are these: for Duration: duration of bronchoprotective effects against methacholine-induced bronchoconstriction after inhalation; for Potency (ID50): 24 h post inhalation, nebulized drug solution 25 min, i.v. methacholine challenge.

The test system of assay [2] is methacholine-induced bronchoconstriction in guinea pig. Kind of assay: Guinea pig bronchoprotection, MCh dose response after inhalation. As to conditions: for Potency (ID50): 24 h post inhalation, nebulized drug solution 25 min, i.v. methacholine challenge; for Duration: duration of bronchoprotective effects against methacholine-induced bronchoconstriction after inhalation.

As to `C[N+]1(C)C2CC[C@@H]1[C@@H](OC(=O)[C@@](O)(c1ccccc1)C1CCCC1)C2.[Br-]`, the Duration entry in assay [1] is “−”.

As for `C[N+]1(C)C2CC[C@H]1[C@H](OC(=O)[C@@](O)(c1ccccc1)C1CCCC1)C2.[Br-]`, in assay [1], the Duration result is reported as “−”.

Consider `C[N+]1(C)C2CC[C@H]1[C@H](OC(=O)[C@](O)(c1ccccc1)C1CCCC1)C2.[Br-]`, for which the “Potency (ID50)” value in assay [1] is “≧10 μg/mL”; in assay [2] it was 50 µg/mL. In addition, the Duration result in assay [1] is “++ (++ ≧24 h duration)”; in assay [2], “+++ (+++ ≧48 h duration)”.

For `C[N+]1(C)C2CC[C@@H]1[C@H](OC(=O)[C@@](O)(c1ccccc1)C1CCCC1)C2.[Br-]`, in assay [1], the Duration entry is reported as “−”.

As for `C[N+]1(C)C2CC[C@@H]1[C@H](OC(=O)[C@](O)(c1ccccc1)C1CCCC1)C2.[Br-]`, in assay [1], the “Potency (ID50)” value is on record as “≦3 μg/mL” and the Duration entry is recorded as “+++ (+++ ≧48 h duration)”. Also, in assay [2], the “Potency (ID50)” value amounted to 3 µg/mL and the Duration result was “+++ (+++ ≧48 h duration)”.

`C[N+]1(C)C2CC[C@@H]1[C@@H](OC(=O)[C@](O)(c1ccccc1)C1CCCC1)C2.[Br-]`: in assay [1], the “Potency (ID50)” value is reported as “≦3 μg/mL” and the Duration entry is “+++ (+++ ≧48 h duration)”. Besides, in assay [2], the “Potency (ID50)” value is 5 µg/mL and the Duration result is “+++ (+++ ≧48 h duration)”.

As to `C[N+]1(C)C2CC[C@H]1[C@@H](OC(=O)[C@](O)(c1ccccc1)C1CCCC1)C2.[Br-]`, in assay [1], the “Potency (ID50)” value was greater than 10 µg/mL and the Duration result was “+ (+ <24 h duration)”.

`C[N+]1(C)C2CC[C@H]1[C@@H](OC(=O)[C@@](O)(c1ccccc1)C1CCCC1)C2.[Br-]`: the Duration result in assay [1] is given as “−”.
